10 compounds from patent USRE28949E, “2-Chloroethane-(thiono)-phosphonic acid esters” (dated 1976) can be followed below.

The subject of one assay is tomato plants. Description: Acceleration of Fruit Ripeness/Tomato Plants. Particulars: green, unripe fruits sprayed once with 5,000 ppm; water control 0.
In another assay the test system is Beans (Phaseolus). Description: Growth Inhibition/Beans (spray, 2,500 ppm). To be noted: sprayed 2,500 ppm at 10 cm; after 6 days; versus untreated control.
For another assay, the system named is linseed. In words: Growth Inhibition/Linseed Test. Particulars: after three days, dark, 25°C; for % inhibition of the shoot with 50 ppm / % inhibition of the shoot with 250 ppm: Table A2.
In the next assay the test system is Wheat plants. Description: Growth Inhibition/Wheat. Particulars: average length; sprayed 5,000 ppm at 4 cm; after 10 days; water control 20.0.
The test system of assay [1] is Beans (Phaseolus vulgaris). In words: Growth Inhibition and Defoliation/Beans. To be noted: after 6 days; for Length in cm: average length of 3 beans, sprayed 5,000 ppm at 10 cm height, water control 17.0; for Number of leaves: defoliation, 3 beans per experiment, sprayed 5,000 ppm, water control 6.
In another assay the test system is bean plants. In words: Growth Inhibition/Beans (Watering Test). To be noted: watered once, 10 kg/hectare; after 8 days; water control 25.0.
In assay [2] the test system is Millet plants (Panicum miliaceum). Description: Growth Inhibition/Millet. To be noted: after 6 days, water control 9.0.

For the compound `O=P(Cl)(CCCl)Oc1ccccc1` (centres unmarked), the “Acceleration of ripeness” value with tomato plants is reported as 14 days.
Regarding `CCCCNP(=O)(Cl)CCCl` (centres unmarked), the “% inhibition of the shoot with 2500 ppm” value in the assay with Beans (Phaseolus) stood at 63%.
For `CC(C)NP(=S)(Cl)CCCl` (centres unmarked), the “% inhibition of the shoot with 50 ppm” value with linseed (shoot) was 40%. Also, the “% inhibition of the shoot with 250 ppm” value with linseed (shoot, 250 ppm) turned out to be 54%. Also, the “Acceleration of ripeness” value in the assay with tomato plants worked out at 15 days.
On to `S=P(Cl)(CCCl)Oc1ccccc1` (centres unmarked), for which the Length in cm with Wheat plants was 5.0 cm. In assay [1], this compound returned a Length in cm of 11.5 cm and a Number of leaves of 0.
For the compound `S=P(Cl)(CCCl)Oc1c(Cl)cccc1Cl` (centres unmarked), the “% inhibition of the shoot with 2500 ppm” value in the assay on Beans (Phaseolus) came out at 68%.
For `Cc1ccc(OP(=S)(Cl)CCCl)cc1` (centres unmarked), in the assay with Beans (Phaseolus), the “% inhibition of the shoot with 2500 ppm” value was 55%.
Turning to `S=P(Cl)(CCCl)Oc1ccccc1Cl` (centres unmarked), the “% inhibition of the shoot with 2500 ppm” value in the assay with Beans (Phaseolus) turned out to be 63%.
Consider `S=P(Cl)(CCCl)Oc1cccc(Cl)c1` (centres unmarked), for which the “% inhibition of the shoot with 50 ppm” value in the assay with linseed (shoot) was 25%. The “% inhibition of the shoot with 250 ppm” value in the assay with linseed (shoot, 250 ppm) is on record as 50%.
On to `CNP(=S)(Cl)CCCl` (centres unmarked), for which the figures for the Length in cm (with bean plants; with Wheat plants; in assay [1]) were 14.0 cm, 6.0 cm and 11.0 cm, respectively. In addition, in the assay on tomato plants, the “Acceleration of ripeness” value worked out at 15 days. This compound gave a Number of leaves in assay [1] of 3. The “Growth increase in cm” value is on record as 4.0 cm in assay [2] (sprayed 1000 ppm at 4 cm) and 1.0 cm in assay [2] (sprayed 2000 ppm at 4 cm).
On to `CC(C)NP(=O)(Cl)CCCl` (centres unmarked), for which the “% inhibition of shoot with 250 ppm” value with linseed (Table A1, shoot, 250 ppm, 100 percent = standstill of growth, 0 percent = untreated plant) turned out to be 55%. Moreover, the “% inhibition of root with 250 ppm” value with linseed (root, 250 ppm, 100 percent = standstill of growth, 0 percent = untreated plant) was determined as 85%. Moreover, in the assay with bean plants, the Length in cm is given as 11.5 cm. In the assay with tomato plants, the “Acceleration of ripeness” value worked out at 17 days. In assay [1], this compound came in with a Length in cm of 11.0 cm and a Number of leaves of 3.
